# Assay results: PubChem BioAssay AID2315 (National Center for Advancing Translational Sciences (NCATS), 2010)
# This is a selection; strong and weak results do not stand in their true shares. Some of these compounds have results that are not shown, active ones among them. Activity calls are given as the source filed them. Rule as the data show it: active = inhibition mostly above about 28% (no sharp cut-off); inactive = mostly below about 43%.
# Test: A qHTS for Small Molecule Inhibitors of Shiga Toxin; also: 0% is about no effect
# Settings: Vero cells, Shiga toxin protein synthesis inhibition reporter; at 38.7 µM; active compounds read high
row,SMILES,inhibition
1,O=C(OC1CN2CCC1CC2)C(CO)(c1ccccc1)c1ccccc1 (centres undefined),inactive: -8.02%
2,CN(C)c1cccc(C(=O)NCC2(N(C)C)CCCCC2)c1,inactive: 9.11%
3,CC(C)Oc1ccc(C(=O)NCC2(N(C)C)CCCCC2)cc1,inactive: -3.47%
4,COc1ccc(Br)c(C(=O)NCC2(N3CCCCC3)CCCCC2)c1,inactive: -7.67%
5,COc1cc(C(=O)NCC2(N(C)C)CCCCC2)c([N+](=O)[O-])cc1OC,inactive: 22.2%
6,CN(C)C1(CNC(=O)c2ccc(Br)cc2)CCCCC1,inactive: -0.728%
7,O=C(NCC1(N2CCCCC2)CCCCC1)c1cccc(Cl)c1,inactive: -8.2%
8,COc1cccc(C(=O)NCC2(N3CCCCC3)CCCCC2)c1,inactive: -2.36%
9,COc1ccc(Cl)cc1C(=O)NCC1(N(C)C)CCCCC1,inactive: 22.3%
10,Cc1ccccc1C(=O)NCC1(N2CCCCC2)CCCCC1,inactive: -7.75%
11,CN(C)c1ccc(C(=O)NCC2(N(C)C)CCCCC2)cc1,inactive: 35.2%
12,CN(C)C1CCCC1OC(=O)C(O)(c1ccccc1)c1ccccc1 (centres undefined),inactive: -6.68%
13,CCN1CCCC(OC(=O)C2(O)c3ccccc3C=Cc3ccccc32)C1 (centres undefined),inactive: -7.7%
14,Cc1cc(C(=O)NCC2(N3CCCCC3)CCCCC2)ccc1[N+](=O)[O-],inactive: -11.2%
15,O=C(NCC1(N2CCCCC2)CCCCC1)c1cccc(Br)c1,inactive: -3.61%
16,COc1ccc(C(=O)NCC2(N(C)C)CCCCC2)cc1,inactive: 18.5%
17,C=CCN1CCN(CCOC(=O)C(O)(c2ccccc2)c2ccccc2)CC1,inactive: 2.51%
18,O=C(NCC1(N2CCCCC2)CCCCC1)c1cc(F)c(F)cc1Cl,inactive: -4.24%
19,CN1[C@@H]2CC[C@H]1CC(OC(=O)C(O)(c1ccccc1)c1ccccc1)C2 (some centres undefined),inactive: -19.7%
20,O=C(NCC1(N2CCCCC2)CCCCC1)c1cc([N+](=O)[O-])ccc1Cl,inactive: -19.6%
21,Cc1ccc(C(=O)NCC2(N3CCCCC3)CCCCC2)cc1,inactive: 30.9%
22,CC(C)N1C(=O)CC2(CCN(CCOC(=O)C(O)(c3ccccc3)c3ccccc3)CC2)C1=O,inactive: -14.7%
23,CCN(CC)CC(C)C(C)OC(=O)C(O)(c1ccccc1)c1ccccc1 (centres undefined),inactive: -5.3%
24,COc1cc(SC)ccc1C(=O)NCC1(N(C)C)CCCCC1,inactive: -8.26%
